Key:
hIDE [1] = molecular target: T1, hIDE (Homo sapiens, UniProt P14735); experiment: In vitro hIDE inhibition of Aβ16–23-based substrate hydrolysis; type: biochemical; settings: for IC50: read-out: IC50 Aβ16-23 hydrolysis, labelled Aβ16-23 substrate, value (CI 95%), mean of 3 to 10 experiments, >100 c = < 10% inhibition at 100 µM
Procedure: In vitro IDE activity was measured with a quenched substrate […]. Human recombinant IDE was cloned and purified as previously described. […] All measurements were carried out as 8-point dose response curves and reported as the average of at least three independent measurements. […] Data analysis was performed using Xlfit v 5.0 and GraphPad Prism v 4.0. Nonlinear curve fitting and statistical analysis was done using built-in functions.

Protein sequences, listed by entry. Tags and fused reporters are not part of them.
UniProt P14735, whole entry: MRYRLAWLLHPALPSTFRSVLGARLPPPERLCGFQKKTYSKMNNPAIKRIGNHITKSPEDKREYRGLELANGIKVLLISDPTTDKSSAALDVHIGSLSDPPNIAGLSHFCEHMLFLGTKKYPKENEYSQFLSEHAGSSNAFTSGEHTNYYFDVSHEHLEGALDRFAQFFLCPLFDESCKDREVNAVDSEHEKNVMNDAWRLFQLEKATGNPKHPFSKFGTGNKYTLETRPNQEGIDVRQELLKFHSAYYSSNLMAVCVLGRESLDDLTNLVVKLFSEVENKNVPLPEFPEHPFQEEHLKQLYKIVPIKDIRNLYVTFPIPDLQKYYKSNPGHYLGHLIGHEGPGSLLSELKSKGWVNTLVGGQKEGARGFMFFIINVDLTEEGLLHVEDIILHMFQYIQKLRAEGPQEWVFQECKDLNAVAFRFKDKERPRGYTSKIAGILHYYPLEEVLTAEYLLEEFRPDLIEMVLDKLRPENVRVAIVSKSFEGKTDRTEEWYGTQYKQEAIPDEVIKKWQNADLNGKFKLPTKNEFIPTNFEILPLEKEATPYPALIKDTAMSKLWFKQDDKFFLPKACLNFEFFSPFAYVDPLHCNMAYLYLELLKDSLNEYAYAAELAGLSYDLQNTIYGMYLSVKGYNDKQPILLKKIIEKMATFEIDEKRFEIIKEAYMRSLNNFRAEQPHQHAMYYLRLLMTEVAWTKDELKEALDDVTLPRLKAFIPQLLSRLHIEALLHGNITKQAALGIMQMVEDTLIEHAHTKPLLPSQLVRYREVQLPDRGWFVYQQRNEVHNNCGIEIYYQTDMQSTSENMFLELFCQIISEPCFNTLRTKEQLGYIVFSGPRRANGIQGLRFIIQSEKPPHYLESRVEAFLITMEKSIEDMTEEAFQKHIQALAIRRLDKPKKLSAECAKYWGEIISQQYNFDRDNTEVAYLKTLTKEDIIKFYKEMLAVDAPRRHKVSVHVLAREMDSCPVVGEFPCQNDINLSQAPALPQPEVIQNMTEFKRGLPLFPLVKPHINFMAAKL

hIDE [2] = molecular target: T1, hIDE; experiment: In vitro hIDE inhibition of insulin hydrolysis; settings: for IC50: read-out: IC50 insulin hydrolysis, full insulin substrate, value (CI 95%), mean of 3 to 10 experiments

Compound | inhibition at 100 µM, Aβ16-23 hydrolysis (hIDE [1]; 100 µM (footnote c)) | IC50 (hIDE [1]) | inhibition at 100 µM, insulin hydrolysis (hIDE [2]; 100 µM (footnote c)) | IC50 (hIDE [2])
O=C(C[C@@H](Cc1ccc2ccccc2c1)n1nncc1CNC(=O)CCc1ccccc1)NO | < 10% | > 100 µM | < 10% | > 100 µM
O=C(C[C@@H](Cc1ccc2ccccc2c1)n1cc(CNC(=O)CCc2ccccc2)nn1)NO |  | 4.4 µM |  | 1 µM
O=C(NCc1cn([C@H](Cc2ccc3ccccc3c2)C(=O)NO)nn1)c1ccc(F)cc1 |  | 67 µM |  | 50 µM
